# Key:
# Sequences of proteins named here, by UniProt entry; tags and fusion partners are left off. Residues count along the entry.
# UniProt P03951, 19-387 partner limits assumed: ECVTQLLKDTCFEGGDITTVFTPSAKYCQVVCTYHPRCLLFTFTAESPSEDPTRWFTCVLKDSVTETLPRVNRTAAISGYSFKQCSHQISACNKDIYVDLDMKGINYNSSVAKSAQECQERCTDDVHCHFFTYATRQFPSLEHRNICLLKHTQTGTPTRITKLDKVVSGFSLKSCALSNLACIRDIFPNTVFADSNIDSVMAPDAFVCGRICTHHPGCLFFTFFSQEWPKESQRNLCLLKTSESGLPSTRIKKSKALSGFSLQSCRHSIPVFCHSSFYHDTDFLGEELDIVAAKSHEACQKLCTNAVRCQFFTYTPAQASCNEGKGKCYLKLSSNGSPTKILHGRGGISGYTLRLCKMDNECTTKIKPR
# UniProt P03951, 388-625 limits assumed: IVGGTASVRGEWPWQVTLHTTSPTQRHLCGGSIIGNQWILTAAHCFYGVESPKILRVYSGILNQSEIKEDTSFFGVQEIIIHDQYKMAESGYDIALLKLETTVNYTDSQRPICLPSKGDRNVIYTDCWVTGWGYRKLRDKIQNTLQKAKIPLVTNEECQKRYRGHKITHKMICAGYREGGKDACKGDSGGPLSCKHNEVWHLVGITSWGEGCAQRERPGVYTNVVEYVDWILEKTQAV
# UniProt P00748, 20-372 partner limits assumed: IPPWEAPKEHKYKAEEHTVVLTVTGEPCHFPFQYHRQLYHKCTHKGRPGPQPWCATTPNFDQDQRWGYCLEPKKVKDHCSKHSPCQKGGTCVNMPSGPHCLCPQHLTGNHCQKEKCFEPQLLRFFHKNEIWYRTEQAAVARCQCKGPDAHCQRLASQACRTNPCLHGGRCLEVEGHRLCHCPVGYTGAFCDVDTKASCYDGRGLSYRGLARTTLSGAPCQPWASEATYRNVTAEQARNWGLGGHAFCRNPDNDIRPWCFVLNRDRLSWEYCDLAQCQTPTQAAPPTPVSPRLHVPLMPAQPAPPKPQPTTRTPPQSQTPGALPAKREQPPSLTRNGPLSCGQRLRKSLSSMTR
# UniProt P00748, 373-615 limits assumed: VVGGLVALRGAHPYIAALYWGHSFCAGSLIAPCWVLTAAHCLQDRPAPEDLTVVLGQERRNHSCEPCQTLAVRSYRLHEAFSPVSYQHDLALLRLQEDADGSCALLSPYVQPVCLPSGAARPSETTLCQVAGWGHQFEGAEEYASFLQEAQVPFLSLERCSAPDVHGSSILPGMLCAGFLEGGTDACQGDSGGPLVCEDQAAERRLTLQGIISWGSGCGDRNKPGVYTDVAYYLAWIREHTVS
# Human FXIa = Human FXIa (Homo sapiens, UniProt P03951); experiment: Determination of FXIa inhibitory activity in vitro (fluorogenic substrate Z-Gly-Pro-Arg-AFC); format: biochemical; conditions: read-out: Human FXIa IC50, selectivity, 25° C., residual enzyme activity (initial rate)
# Human Factor XIIa = Human Factor XIIa (Homo sapiens, UniProt P00748); experiment: Determination of FXIIa inhibitory activity in vitro (fluorogenic substrate H-DPro-Phe-Arg-AFC); format: biochemical; conditions: read-out: Human FXIIa IC50, 25° C., residual enzyme activity (initial rate)
Compound,IC50 (Human FXIa),IC50 (Human Factor XIIa)
CC(=O)N(CC1CCN(C)CC1)c1c(C(=O)NCc2ccc3c(N)nccc3c2)sc(Cl)c1C,> 40 µM,10 to 40 µM
CC(=O)N(CC1CCN(C)CC1)c1c(C)csc1C(=O)NCc1ccc2c(N)nccc2c1,> 40 µM,10 to 40 µM
CC(=O)N(CC1CCN(C)CC1)c1cc(C)sc1C(=O)NCc1ccc2c(N)nccc2c1,> 40 µM,10 to 40 µM
